Source: patent publication US12098118B2 (Regents of the University of Minnesota, priority 2018, dated 2024)

Test: cardiovascular measures / heart rate after i.v. injection
Details: i.v. injection (FIG. 4)

Structure (SMILES)	impact on heart rate
N=C(N)NCCCCN [agmatine, 1-(4-aminobutyl)guanidine, reference compound]	neither agmatine or J-4 had any effect
Clc1cccc(Cl)c1N=C1NCCN1 [clonidine, reference compound]	reduced heart rate for 60 minutes post-injection
CC(=O)NCCCCN/C(=N\C(=O)OC(C)(C)C)NC(=O)OC(C)(C)C [J-4, 4-(2,3-bis(tert-butyloxycarbonyl)guanidino)butylacetamide]	neither agmatine or J-4 had any effect
